Data on four molecules can be found in patent publication US20030181447A1, “3-(Diarylmethylene)-8-azabicyclo[3.2.1]octane derivatives” (priority 2001, published 2003).

The target of the experiment is δ-opioid receptor (Rattus norvegicus, UniProt P33533).
`CN(C)CCCNC(=O)c1ccc(C(=C2CC3CCC(C2)N3CCc2ccccc2)c2ccccc2)cc1` showed a Ki of 404 nM.
`O=C(NCCc1cnc[nH]1)c1ccc(C(=C2CC3CCC(C2)N3CCc2ccccc2)c2ccccc2)cc1` displayed a Ki of 178 nM.
With `CC(C)N(C(=O)c1ccc(C(=C2CC3CCC(C2)N3CCc2ccccc2)c2ccccc2)cc1)C(C)C`, the Ki was 49 nM.
With `C=C(C)CN(CC)C(=O)c1ccc(C(=C2CC3CCC(C2)N3CCc2ccccc2)c2ccccc2)cc1` the figure was 2.9 nM.
